This is an account of results in paper PMC9837800 (Journal of medicinal chemistry, 2022).

The data set deals with OVCAR3 CCNE1 amplified xenograft.

For `Cc1cc2c(C(N)=O)c(N)n(-c3c(C)ccc(O)c3C)c2nc1C` [RP-6306, (S)-2-amino-1-(3-hydroxy-2,6-dimethyl-phenyl)-5,6-dimethyl-pyrrolo[2,3-b]pyridine-3-carboxamide], under “300 ppm chow, initially”, the “body weight change (in words)” value was “slight body weight loss”. Moreover, for the setting “formulated in chow, 21-day treatment period”, the tolerability entry is on record as “well tolerated”.
